target: human mGluR2 (Homo sapiens (Human), UniProt Q14416); experiment: FLIPR Ca2+ mobilization antagonist assay in CHO dhfr- cells expressing recombinant human mGluR2 and Gα16; type: cell-based; conditions: antagonist response after addition of 2,500 nM glutamate, Fluo-4 AM, FLIPR384

Protein sequences, listed by entry. Tags and fused reporters are not part of them. Residues count along the entry.
UniProt Q14416, 19-872: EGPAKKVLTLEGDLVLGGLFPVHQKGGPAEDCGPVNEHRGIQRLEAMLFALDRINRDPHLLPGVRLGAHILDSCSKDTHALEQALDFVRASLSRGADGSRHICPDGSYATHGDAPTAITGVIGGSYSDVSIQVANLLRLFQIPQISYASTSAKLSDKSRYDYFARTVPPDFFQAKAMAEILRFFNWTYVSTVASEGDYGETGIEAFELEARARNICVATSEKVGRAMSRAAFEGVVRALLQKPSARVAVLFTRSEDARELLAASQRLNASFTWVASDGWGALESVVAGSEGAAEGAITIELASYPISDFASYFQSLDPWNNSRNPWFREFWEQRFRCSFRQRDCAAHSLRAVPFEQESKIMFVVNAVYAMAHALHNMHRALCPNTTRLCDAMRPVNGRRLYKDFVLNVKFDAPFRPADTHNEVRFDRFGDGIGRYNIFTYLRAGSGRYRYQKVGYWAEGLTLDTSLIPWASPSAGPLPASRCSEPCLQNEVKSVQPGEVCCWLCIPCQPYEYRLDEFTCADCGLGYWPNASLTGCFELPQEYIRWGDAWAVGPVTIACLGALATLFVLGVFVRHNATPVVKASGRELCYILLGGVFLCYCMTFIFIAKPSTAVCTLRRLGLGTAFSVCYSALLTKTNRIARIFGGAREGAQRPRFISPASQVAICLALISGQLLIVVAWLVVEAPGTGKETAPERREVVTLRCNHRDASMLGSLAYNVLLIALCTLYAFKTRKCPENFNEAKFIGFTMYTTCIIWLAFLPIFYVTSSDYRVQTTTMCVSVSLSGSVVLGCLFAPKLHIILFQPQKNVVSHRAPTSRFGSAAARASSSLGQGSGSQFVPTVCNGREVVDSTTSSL

In order of falling IC50:
1. N#Cc1cc(-c2ccc(F)cc2)c2ccc(CN3CCCC3=O)cc2n1 [Example 2-36, 4-(4-fluorophenyl)-7-[(2-oxopyrrolidin-1-yl)methyl]quinoline-2-carbonitrile]  3060 nM
2. CN1CC(=O)N(Cc2ccc3c(-c4ccc(F)cc4)cc(C#N)nc3c2)C1=O [Example 2-19, 4-(4-fluorophenyl)-7-[(3-methyl-2,5-dioxoimidazolidin-1-yl)methyl]quinoline-2-carbonitrile]  588 nM
3. NC(=O)c1cc(-c2cnn(-c3ccccc3)c2)c2ccccc2n1 [Example 1-22, 4-(1-phenyl-1H-pyrazol-4-yl)quinoline-2-carboxamide]  505 nM
4. CC1(C)CC(=O)N(Cc2ccc3c(-c4ccc(F)cc4)cc(C#N)nc3c2)C(=O)C1 [Example 2-12, 7-[(4,4-dimethyl-2,6-dioxopiperidin-1-yl)methyl]-4-(4-fluorophenyl)quinoline-2-carbonitrile]  475 nM
5. CC(C)(C)OC(=O)N(Cc1ccc2c(-c3ccc(F)cc3)cc(C(N)=O)nc2c1)C(=O)OC(C)(C)C [Example 2-23, di-tert-butyl {[2-carbamoyl-4-(4-fluorophenyl)quinolin-7-yl]methyl}imidodi-carbonate]  456 nM
6. N#Cc1cc(-c2ccc(F)cc2)c2ccc(CN3C(=O)CCC3=O)cc2n1 [Example 2-9, 7-[(2,5-dioxopyrrolidin-1-yl)methyl]-4-(4-fluorophenyl)quinoline-2-carbonitrile]  416 nM
7. Cc1ccc(-c2cc(C(N)=O)nc3cc(C)ccc23)cc1 [Example 1-25, 7-methyl-4-(4-methylphenyl)quinoline-2-carboxamide]  407 nM
8. N#Cc1cc(-c2ccc(F)cc2)c2ccc(CN3C(=O)COC3=O)cc2n1 [Example 2-17, 7-[(2,4-dioxo-1,3-oxazolidin-3-yl)methyl]-4-(4-fluorophenyl)quinoline-2-carbonitrile]  398 nM
9. Cc1ccc2c(-c3ccccc3F)cc(C(N)=O)nc2c1 [Example 1-28, 4-(2-fluorophenyl)-7-methylquinoline-2-carboxamide]  393 nM
10. Cc1ccc2c(-c3ccccc3Cl)cc(C(N)=O)nc2c1 [Example 1-27, 4-(2-chlorophenyl)-7-methylquinoline-2-carboxamide]  377 nM
11. NC(=O)c1cc(-c2ccc(F)cc2)c2ccc(CN3CCOCC3=O)cc2n1 [Example 2-35, 4-(4-fluorophenyl)-7-[(3-oxomorpholin-4-yl)methyl]quinoline-2-carboxamide]  228 nM
12. COc1ccc(-c2cc(C(N)=O)nc3cc(C)ccc23)cc1 [Example 1-26, 4-(4-methoxyphenyl)-7-methylquinoline-2-carboxamide]  217 nM
13. Cc1ccc2c(-c3ccc(C#N)cc3)cc(C(N)=O)nc2c1 [Example 1-29, 4-(4-cyanophenyl)-7-methylquinoline-2-carboxamide]  190 nM
14. COc1ccc(-c2cc(C(N)=O)nc3ccccc23)c(F)c1 [Example 1-20, 4-(2-fluoro-4-methoxyphenyl)quino-line-2-carboxamide]  139 nM
15. Cc1ccc(-c2cc(C(N)=O)nc3ccccc23)c(C#N)c1 [Example 1-23, 4-(2-cyano-4-methylphenyl)quinoline-2-carboxamide]  135 nM
16. CC(C)(C)OC(=O)NCc1ccc2c(-c3ccc(F)cc3)cc(C(N)=O)nc2c1 [Example 2-32, tert-butyl {[2-carbamoyl-4-(4-fluorophenyl)quinolin-7-yl]methyl}carbamate]  129 nM
17. Cc1ccc(-c2cc(C(N)=O)nc3ccccc23)c(F)c1 [Example 1-21, 4-(2-fluoro-4-methylphenyl)quinoline-2-carboxamide]  124 nM
18. NC(=O)c1cc(-c2ccc(F)cc2)c2ccc(CN3CCOC3=O)cc2n1 [Example 2-30, 4-(4-fluorophenyl)-7-[(2-oxo-1,3-oxazolidin-3-yl)methyl]quinoline-2-carboxamide]  123 nM
19. CN1CCN(Cc2ccc3c(-c4ccc(F)cc4)cc(C(N)=O)nc3c2)C1=O [Example 2-31, 4-(4-fluorophenyl)-7-[(3-methyl-2-oxoimidazolidin-1-yl)methyl]quinoline-2-carboxamide]  109 nM
20. NC(=O)c1cc(-c2ccc(F)cc2)c2ccc(CN3CCCS3(=O)=O)cc2n1 [Example 2-34, 7-[(1,1-dioxidoisothiazolidin-2-yl)methyl]-4-(4-fluorophenyl)quinoline-2-carboxamide]  105 nM
21. CC1(c2ccccc2)CC(=O)N(Cc2ccc3c(-c4ccc(F)cc4)cc(C(N)=O)nc3c2)C1=O (stereo not drawn) [Example 2-13, 4-(4-fluorophenyl)-7-[(3-methyl-2,5-dioxo-3-phenylpyrrolidin-1-yl)methyl]quinoline-2-carboxamide]  71 nM
22. CN1C(=O)N(Cc2ccc3c(-c4ccc(F)cc4)cc(C(N)=O)nc3c2)C(=O)C1(C)C [Example 2-15, 4-(4-fluorophenyl)-7-[(3,4,4-trimethyl-2,5-dioxoimidazolidin-1-yl)methyl]quinoline-2-carboxamide]  64 nM
23. NC(=O)c1cc(-c2ccc(F)cc2)c2ccc(Cn3cc(C(O)C4CC4)cn3)cc2n1 (stereo not drawn) [Example 3-10, 7-({4-[Cyclopropyl(hydroxy)methyl]-1H-pyrazol-1-yl}methyl)-4-(4-fluorophenyl)quinoline-2-carboxamide]  63 nM
24. CC1(C)NC(=O)N(Cc2ccc3c(-c4ccc(F)cc4)cc(C(N)=O)nc3c2)C1=O [Example 2-16, 7-[(4,4-dimethyl-2,5-dioxoimidazolidin-1-yl)methyl]-4-(4-fluorophenyl)quinoline-2-carboxamide]  59 nM
25. CC1C(=O)N(Cc2ccc3c(-c4ccc(F)cc4)cc(C(N)=O)nc3c2)C(=O)C1(C)C (stereo not drawn) [Example 2-22, 4-(4-fluorophenyl)-7-[(3,3,4-trimethyl-2,5-dioxopyrrolidin-1-yl)methyl]quinoline-2-carboxamide]  47 nM
26. NC(=O)c1cc(-c2ccc(F)cc2)c2ccc(Cn3cnc4ccccc43)cc2n1 [Example 3-2, 7-((1H-benzo[d]imidazol-1-yl)methyl)-4-(4-fluorophenyl)quinoline-2-carboxamide]  46 nM
27. NC(=O)c1cc(-c2ccc(F)cc2)c2ccc(CN3CCCCS3(=O)=O)cc2n1 [Example 2-33, 7-[(1,1-dioxido-1,2-thiazinan-2-yl)methyl]-4-(4-fluorophenyl)quinoline-2-carboxamide]  42 nM
28. NC(=O)c1cc(-c2ccc(F)cc2)c2ccc(CN3C(=O)CNC3=O)cc2n1 [Example 2-8, 7-[(2,5-dioxoimidazolidin-1-yl)methyl]-4-(4-fluorophenyl)quinoline-2-carboxamide]  38 nM
29. CCC1(C)CC(=O)N(Cc2ccc3c(-c4ccc(F)cc4)cc(C(N)=O)nc3c2)C1=O (stereo not drawn) [Example 2-14, 7-[(3-ethyl-3-methyl-2,5-dioxopyrrolidin-1-yl)methyl]-4-(4-fluorophenyl)quinoline-2-carboxamide]  30 nM
30. NC(=O)c1cc(C2CCCCC2)c2ccc(CN3C(=O)CCC3=O)cc2n1 [Example 2-26, 4-cyclohexyl-7-[(2,5-dioxopyrrolidin-1-yl)methyl]quinoline-2-carboxamide]  29 nM
31. NC(=O)c1cc(-c2ccc(F)cc2)c2ccc(CN3C(=O)CC4(CCCC4)C3=O)cc2n1 [Example 2-18, 7-[(1,3-dioxo-2-azaspiro[4.4]non-2-yl)methyl]-4-(4-fluorophenyl)quinoline-2-carboxamide]  28 nM
32. CC1(C)CC(=O)N(Cc2ccc3c(-c4ccc(F)cc4)cc(C(N)=O)nc3c2)C1=O [Example 2-20, 7-[(3,3-dimethyl-2,5-dioxopyrrolidin-1-yl)methyl]-4-(4-fluorophenyl)quinoline-2-carboxamide]  27 nM
33. COc1ccc(-c2cc(C(N)=O)nc3cc(CN4C(=O)CCC4=O)ccc23)cc1 [Example 2-38, 7-[(2,5-dioxopyrrolidin-1-yl)methyl]-4-(4-methoxyphenyl)quinoline-2-carboxamide]  27 nM
34. CC1(C)OC(=O)N(Cc2ccc3c(-c4ccc(F)cc4)cc(C(N)=O)nc3c2)C1=O [Example 2-11, 7-[(5,5-dimethyl-2,4-dioxo-1,3-oxazolidin-3-yl)methyl]-4-(4-fluorophenyl)quinoline-2-carboxamide]  25 nM
35. CN1CC(=O)N(Cc2ccc3c(-c4ccc(F)cc4)cc(C(N)=O)nc3c2)C1=O [Example 2-3, 4-(4-fluorophenyl)-7-((3-methyl-2,5-dioxoimidazolidin-1-yl)methyl)quinoline-2-carboxamide]  21 nM
36. CC1(C)CC(=O)N(Cc2ccc3c(-c4ccc(F)cc4)cc(C(N)=O)nc3c2)C(=O)C1 [Example 2-10, 7-[(4,4-dimethyl-2,6-dioxopiperidin-1-yl)methyl]-4-(4-fluorophenyl)quinoline-2-carboxamide]  21 nM
37. CC1CCC(c2cc(C(N)=O)nc3cc(CN4C(=O)CCC4=O)ccc23)CC1 (stereo not drawn) [Example 2-28, 7-[(2,5-dioxopyrrolidin-1-yl)methyl]-4-(4-methylcyclohexyl)quin-oline-2-carboxamide]  17 nM
38. NC(=O)c1cc(C2=CCCCC2)c2ccc(CN3C(=O)CCC3=O)cc2n1 [Example 2-25, 4-cyclohex-1-en-1-yl-7-[(2,5-dioxopyrrolidin-1-yl)methyl]quinoline-2-carboxamide]  16 nM
39. NC(=O)c1cc(-c2ccc(F)cc2Cl)c2ccc(CN3C(=O)CCC3=O)cc2n1 [Example 2-24, 4-(2-chloro-4-fluorophenyl)-7-[(2,5-dioxopyrrolidin-1-yl)methyl]quinoline-2-carboxamide]  12 nM
40. COc1ccc(-c2cc(C(N)=O)nc3cc(CN4C(=O)CCC4=O)ccc23)c(F)c1 [Example 2-39, 7-[(2,5-dioxopyrrolidin-1-yl)methyl]-4-(2-fluoro-4-methoxyphenyl)quinoline-2-carboxamide]  8 nM
41. CC1CC=C(c2cc(C(N)=O)nc3cc(CN4C(=O)CCC4=O)ccc23)CC1 (stereo not drawn) [Example 2-27, 7-[(2,5-dioxopyrrolidin-1-yl)methyl]-4-(4-methylcyclohex-1-en-1-yl)quinoline-2-carboxamide]  7 nM
42. Cc1ccc(-c2cc(C(N)=O)nc3cc(CN4C(=O)CCC4=O)ccc23)cc1 [Example 2-29, 7-[(2,5-dioxopyrrolidin-1-yl)methyl]-4-(4-methylphenyl)quinoline-2-carboxamide]  5 nM

Source: patent US9278960B2, “Quinoline carboxamide and quinoline carbonitrile derivatives as mGluR2-negative allosteric modulators, compositions, and their use” (Merck Sharp & Dohme Corp., priority 2011, dated 2016)
